Values quoted from earlier work in patent publication US20030232019A1, “Inhalable formulations for sustained release” (Advanced Inhalation Research, Inc., priority 2002, published 2003).

How the values were obtained:
[1] = primates; dry powder formulation, pulmonary delivery
[2] = human subjects; dry powder formulation, pulmonary delivery

insulin
time at which the peak insulin level was reached [1]: about 30 minutes | time at which the peak insulin level was reached [2]: about 20 minutes

Read-outs that look alike come from different tables or passages of the source.
